The list shows a part of the results, in another mix than the full data. Active and inactive are the calls of the source. No stated cut-off is given here; in the data, active means inhibition above about 30% (passing the limit was not always enough); inconclusive means no clear call, values can overlap the other calls.
test system: PvdQ acylase [Pseudomonas aeruginosa LESB58]; assay: P. aeruginosa PvdQ acylase inhibitors, primary screen, biochemical, fluorescence, plate reader and imaging, single point (AID 488965); conditions: purified PvdQ acylase, at 10 µM, stronger effect = higher value;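 further: 0% = vehicle neutral wells and 100% = reference inhibitor wells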

Row | SMILES | inhibition
1 | CCC(=O)N(c1ccccc1)C1(COC)CCN(CCc2cccs2)CC1 | inactive: 3.87%
2 | CCC(=O)N(c1ccccc1)C1(COC)CCN(CCn2nnn(CC)c2=O)CC1 | inactive: -13.2%

From PubChem BioAssay AID488965 (Broad Institute, 2010)
